Our source for the cytotoxicity values is patent US20180263909A1, “DUAL LOADED LIPOSOMAL NANOPARTICLES” (priority 2015, published 2018).

One data set relates to NCI-H929 cells. The conditions noted are these: 25 nM of each drug, 48 h.
The test system of another data set is MM.1S cells. Kind of data set: Cytotoxicity (Cell Counting Kit-8) and Chou-Talalay synergy analysis, MM.1S. Type of data set: cell-based. The conditions noted are these: 25 nM of each drug, 48 h.

Turning to `COc1cccc2c1C(=O)c1c(O)c3c(c(O)c1C2=O)C[C@@](O)(C(=O)CO)C[C@@H]3O[C@H]1C[C@H](N)[C@H](O)[C@H](C)O1` [doxorubicin], the cytotoxicity entry in the data set on NCI-H929 cells and in the data set on MM.1S cells was “minimal cytotoxicity” throughout.
